Test results from US5962314A, “Calcium receptor-active molecules” (priority 1997, dated 1999).
Entries after “also recorded” stand apart in the source; their conditions may differ.

What was measured:
[1] = tested on: bovine parathyroid cells; experiment: PTH secretion from bovine parathyroid cells; assay type: cell-based
[2] = tested on: cyclic AMP; assay type: cell-based, bovine

SMILES: NCCCNCCCCNCCCN [Spermine]
- effect on PTH secretion [1]: inhibits PTH secretion; also recorded: inhibited PTH secretion to the same extent as extracellular Ca^2+
- effect on isoproterenol-induced increases in cyclic AMP [2]: depressed isoproterenol-induced increases in cyclic AMP
